Drawing on PubChem BioAssay AID1347071 (National Center for Advancing Translational Sciences (NCATS), 2019), this text covers growth rescue for 71 compounds.

Only a part is listed here, and it is no random draw. Calls of active or inactive are those of the source. Calls follow the shape of the dose curve; as a rule, active = well fitted activation curve with a large enough effect; inconclusive = small, poorly fitted or top-dose-only effect; inactive = no such curve, though single readings can be large or run the other way.

The nature of the assay: qHTS for compounds that reverse cellular toxicity of Amyloid beta (A-beta) peptide in yeast: Primary Screen. Also: nearly all actives have a fitted effect of over 55% in size. To be noted: yeast expressing A-beta42, growth rescue, OD600, 48 h, 0% DMSO, 100% iron-clioquinol control; at 46.1 µM (top of the series). From the text: The A-beta peptide is produced by the processing of the amyloid precursor protein (APP) by two proteases, beta and gamma secretases. […] A-beta42 is regarded as the most amyloidogenic form due to its hydrophobicity; however, precisely how A-beta42 induces neurotoxicity is unclear. To understand further this biology and its potential therapeutic implications for human neurodegenerative disease, a quantitative high-throughput screen for compounds that reverse the cellular toxicity of the A-beta peptide was developed. A yeast based screen was used because it recapitulates the salient feature of protein mis-folding disorder accurately. This cell-based phenotypic screen provides a significant, unbiased advantage by letting the compounds and models inform us which proteins or pathways are most relevant. The ideal chemical candidates would therefore have activity in both our primary yeast and secondary neuronal toxicity assays, as well as in mouse models. They will be valuable tools for dissecting diverse protein homeostasis pathologies and could potentially become the focus for future pre-clinical development. For this luminescence assay, inhibition of A-beta rescues the toxic effect in the yeast cell, resulting in increase of signals and the desired phenotype of "Activator". This screen is run against the Molecular Libraries Small Molecule Repository (MLSMR) and the NCGC Sytravon Library Collection.
NIH Chemical Genomics Center [NCGC]
NIH Molecular Libraries Probe Centers Network [MLPCN]
Assay Submitter (PI): Susan Lindquist, Whitehead Institute, Massachusetts Institute of Technology
[1] Vassar R,et al (1999). Beta-secretase cleavage of Alzheimer's amyloid precursor protein by the transmembrane aspartic protease BACE. Science. 286: 735-741.
[2] Yan R, et al (1999). Membrane-anchored aspartyl protease with Alzheimer's disease beta-secretase activity. Nature. 402: 533-536.
Two and a half microliter / well of yeast growth medium were dispensed in a 1536 assay plate. Compounds were pinned using the Kalypsys robotic system followed by addition of 2.5 uL / well yeast solution. The assay plates were incubated at 30 C. After 48 hr, the absorbance signal at 600 nm was obtained using the PerkinElmer ViewLux plate reader to assess yeast growth. The data was normalized to the positive control of an equimolar mixture of ferric chloride (FeCl3) and clioquinol and to the negative control DMSO.
Take `CCCC1OP(N)(=O)OCC1CC` (stereo unspecified): the growth rescue is inactive: 4.02%.

In the case of `CC(=O)Nc1ccc([As](=O)(O)O)cc1`, the growth rescue was inactive: -2.29%.

As for `O=C(O)c1ccccc1[As](=O)(O)O`, the growth rescue is inactive: -17.6%.

For `O=P(Nc1nc2ccc(Cl)cc2s1)(c1ccccc1)c1ccccc1`, the growth rescue is inactive: -5.84%.

`CN(C)P(=O)(N(C)C)n1c(Nc2ccccc2)nnc1-c1ccccc1`: the growth rescue was inactive: -4.22%.

Take `Cc1ccc(NP(=O)(Oc2ccccc2F)Oc2ccccc2F)nc1`: the growth rescue was inactive: 10.2%.

In the case of `CN(C(=O)Cc1ccc(Cl)c(Cl)c1)[C@H]1CCCC[C@@H]1N1CCCC1`, the growth rescue was inactive: 1.73%.

With `Cc1cc(SC(NC(=O)c2ccc(F)cc2)C(Cl)(Cl)Cl)ncn1` (stereo unspecified), the growth rescue was inactive: -28.4%.

Take `CCOP(=O)(Nc1ccccc1)OCC`: the growth rescue is inactive: -11.9%.

For `CCN(N=Nc1nonc1N)c1nonc1N`, the growth rescue is inactive: 8.76%.

Turning to `Nc1cccc2ccc([As](=O)(O)O)cc12`, the growth rescue was inactive: -9.73%.

Turning to `O=P1(N(CCCl)CCCl)OCCCS1` (stereo unspecified), the growth rescue was inactive: -3.4%.

For `O=C(Nc1cc([As](=O)(O)O)ccc1O)c1ccccc1`, the growth rescue was inactive: 6.08%.

`CC(C)(C)C(=O)NC(Sc1ccncn1)C(Cl)(Cl)Cl` (stereo unspecified): the growth rescue was inactive: 7.21%.

Turning to `O=[N+]([O-])c1ncn(CCn2ncnc2[N+](=O)[O-])n1`, the growth rescue is inactive: 13%.

For the compound `COC(=O)C1(C)COP(=O)(Nc2ccccc2)OC1` (stereo unspecified), the growth rescue is inactive: -7.43%.

For the compound `O=[N+]([O-])c1cccc(NC2=NCC(CBr)S2)c1` (stereo unspecified), the growth rescue was inactive: 6.28%.

As for `O=C(O)CNc1ccc([As](=O)(O)O)cc1`, the growth rescue was inactive: 10.9%.

Regarding `COc1ccc(C2=NCC(CBr)S2)cc1` (stereo unspecified), the growth rescue was inactive: -14.6%.

`O=[N+]([O-])c1cccc2n[nH]nc12`: the growth rescue was inactive: -10.1%.

For the compound `CC(=O)N1C2C3N(C(C)=O)C1C1N(C(C)=O)C(C(N1C(C)=O)N3C(C)=O)N2C(C)=O`, the growth rescue was inactive: 14.9%.

For the compound `CCc1nc2c(n1)c1c(non1O)c1c2no[n+]1[O-]`, the growth rescue was inactive: 15.9%.

Turning to `O=[N+]([O-])c1cc([N+](=O)[O-])c(CCNc2ccccc2)c([N+](=O)[O-])c1`, the growth rescue was inactive: -53.3%.

With `Cc1ccc(NP(=O)(Oc2ccccc2)Oc2ccccc2)nc1`, the growth rescue is inactive: 13.2%.

Take `Nc1ccc([As](=O)(O)c2ccc(N)cc2)cc1`: the growth rescue is inactive: -5.43%.

As to `CCN(/C(=N/P(=O)(N1CCOCC1)N1CCOCC1)N1CCOCC1)c1ccc(OC)cc1`, the growth rescue was inactive: 0.331%.

Take `CN(C)C(=O)OCCc1n(C)cc[n+]1C`: the growth rescue was inactive: 1.41%.

Take `CC(C)c1nc(Nc2ccccc2)n(P(=O)(N(C)C)N(C)C)n1`: the growth rescue was inactive: 4.63%.

On to `CC(C)=N/N=C(\N)N[N+](=O)[O-]`, for which the growth rescue is inactive: -5.59%.

For `CC1CCN(C(=O)Oc2c(Cl)cc(Cl)c3cccnc23)CC1`, the growth rescue was inactive: -2.66%.

With `c1cc(-c2nn[nH]n2)ccc1-c1nn[nH]n1`, the growth rescue was inactive: -0.0346%.

For `CC(C)C(=O)NC(Sc1ccccc1)C(Cl)(Cl)Cl` (stereo unspecified), the growth rescue was inactive: -15.2%.

Turning to `c1nnnn1CCn1cnnn1`, the growth rescue was inactive: 3.65%.

In the case of `COc1ccc(N)c([N+](=O)[O-])c1[N+](=O)[O-]`, the growth rescue was inactive: 3.27%.

`Nc1ccc(CCCCOc2ccccc2)cc1`: the growth rescue is inactive: 3.08%.

Regarding `O=P(Nc1ccccn1)(c1ccc(Br)cc1)c1ccc(Br)cc1`, the growth rescue is inactive: 6.99%.

For `CN(C)C1(CNC(=O)c2ccc(Cl)c(S(N)(=O)=O)c2)CCCCC1`, the growth rescue was inactive: 2.68%.

For `C[C@H]1OP(=O)(Oc2ccccc2)[C@H](O)[C@H](O)[C@H]1N=[N+]=[N-]` (stereo partly specified), the growth rescue is inactive: -12.7%.

Consider `O=P(Nc1nc2ccccc2s1)(c1ccccc1)c1ccccc1`, for which the growth rescue was inactive: 8%.

Take `O=[N+]([O-])c1ccc(O)c(/C=N/Nc2ccc([N+](=O)[O-])cc2[N+](=O)[O-])c1`: the growth rescue was inactive: -68.3%.

`O=[N+]([O-])c1ncn(CCn2cnc([N+](=O)[O-])n2)n1`: the growth rescue is inactive: 2.97%.

In the case of `O=[As](O)(c1ccccc1)c1ccc(O)cc1`, the growth rescue was inactive: -9.15%.

Regarding `C(Cc1nn[nH]n1)Cc1nn[nH]n1`, the growth rescue is inactive: 6.15%.

As for `Nc1ccc([As](=O)(O)c2ccc([N+](=O)[O-])cc2)cc1`, the growth rescue was inactive: -9.37%.

`O=C(OC1CN2CCC1CC2)c1cccc(Cl)c1` (stereo unspecified): the growth rescue was inactive: 0.9%.

On to `CCNC(=S)/N=C(\N)N[N+](=O)[O-]`, for which the growth rescue is inactive: -0.255%.

Turning to `O=C(NC1CCS(=O)(=O)C1)NP(=S)(Oc1ccccc1)Oc1ccccc1` (stereo unspecified), the growth rescue was inactive: 2.19%.

On to `Cc1ccc(NP(=O)(Oc2cccc(C)c2)Oc2cccc(C)c2)nc1`, for which the growth rescue was inactive: 0.325%.

On to `c1ccc(-c2nn[nH]n2)c(-c2nn[nH]n2)c1`, for which the growth rescue was inactive: -3.41%.

In the case of `O=P1(N(CCCl)CCCl)OCCC2CCCCN21` (stereo unspecified), the growth rescue is inactive: 3.11%.

In the case of `CC(=O)NC(SC(=S)N(CC(C)C)CC(C)C)C(Cl)(Cl)Cl` (stereo unspecified), the growth rescue was inactive: 26.7%.

Regarding `Cc1ccc(OP(=O)(Nc2ccccn2)Oc2ccc(C)cc2)cc1`, the growth rescue was inactive: -54.8%.

`COC(=O)c1cc2c(s1)N=C(c1ccccc1)N(C)P2(=O)N1CCOCC1` (stereo unspecified): the growth rescue was inactive: 15%.

`CCC(=O)N1C2C3N(C(=O)CC)C1C1N(C(=O)CC)C(C(N1C(=O)CC)N3C(=O)CC)N2C(=O)CC`: the growth rescue is inactive: 4.14%.

Turning to `O=C(OC1CN2CCC1CC2)c1ccccc1` (stereo unspecified), the growth rescue was inactive: -16%.

For the compound `O=c1c2cc([N+](=O)[O-])ccc2[nH]c2c([N+](=O)[O-])cc([N+](=O)[O-])cc12`, the growth rescue is inactive: -93.7%.

Turning to `CN(C)C(=O)Oc1noc2ccccc12`, the growth rescue is inactive: -16.8%.

As to `CC(NC(=O)COC(=O)C(O)(c1ccccc1)c1ccccc1)c1ccccc1` (stereo unspecified), the growth rescue was inactive: 12.3%.

Turning to `Cc1ccccc1OP(=O)(Nc1ccccn1)Oc1ccccc1C`, the growth rescue was inactive: 13.8%.

For `CCOc1ccc(C2=NCC(CBr)S2)cc1` (stereo unspecified), the growth rescue is inactive: 2.72%.

For `O=P1(Nc2nc3ccc(Cl)cc3s2)COc2ccccc2O1` (stereo unspecified), the growth rescue is inactive: -9.25%.

For `CCc1cc(O)c([N+](=O)[O-])c(C)c1[N+](=O)[O-]`, the growth rescue was inactive: -92.5%.

With `CC(C)(C)C(=O)NC(Sc1ccccc1)C(Cl)(Cl)Cl` (stereo unspecified), the growth rescue is inactive: 8.77%.

With `COC(=O)C1(C)COP(=O)(NCc2ccccc2)OC1` (stereo unspecified), the growth rescue was inactive: -5.24%.

On to `CC(=O)c1ccc(N2CC2c2ccncc2)cc1` (stereo unspecified), for which the growth rescue is inactive: -0.913%.

With `N#C/C(=C\c1ccc(N(CCBr)CCBr)cc1)C(N)=O`, the growth rescue was inactive: -7.9%.

In the case of `C[C@H]1OP(=O)(Oc2ccccc2)C[C@@H]2O[C@@H]21` (stereo partly specified), the growth rescue is inactive: 1.59%.

For the compound `C[C@@H]1C=CCP(=O)(Oc2ccccc2)O1` (stereo partly specified), the growth rescue was inactive: 2.75%.

`Cc1ccccc1CN(C)C(=O)COC(=O)C(O)(c1ccccc1)c1ccccc1`: the growth rescue is inactive: -10.7%.

Consider `CC(=O)Nc1ccc(Oc2c([N+](=O)[O-])cc([N+](=O)[O-])cc2[N+](=O)[O-])cc1`, for which the growth rescue was inactive: 2.43%.

On to `CC(=O)Nc1ccc([As](=O)(O)O)c(O)c1`, for which the growth rescue was inactive: 5.95%.
